For assay [1], the target named is T1, GluN1+GluN2A (wildtype receptor complex) (Rattus norvegicus, UniProt P35439+Q00959).
T1 construct: the results obtained with full length GluN2A and GluN2B receptors can be reproduced; host or cells: HEK293
Put plainly: Luminescent Cytotoxicity Assay, GluN1+GluN2A expressing HEK293 cells in presence of MK-801. It is filed as cell-based. As to conditions: combined expression of GluN1 and rat GluN2A in presence of MK-801, 48 h after transfection.

Sequences of proteins named here, by UniProt entry; tags and fusion partners are left off. Residues count along the entry.
UniProt Q00959, 23-1464: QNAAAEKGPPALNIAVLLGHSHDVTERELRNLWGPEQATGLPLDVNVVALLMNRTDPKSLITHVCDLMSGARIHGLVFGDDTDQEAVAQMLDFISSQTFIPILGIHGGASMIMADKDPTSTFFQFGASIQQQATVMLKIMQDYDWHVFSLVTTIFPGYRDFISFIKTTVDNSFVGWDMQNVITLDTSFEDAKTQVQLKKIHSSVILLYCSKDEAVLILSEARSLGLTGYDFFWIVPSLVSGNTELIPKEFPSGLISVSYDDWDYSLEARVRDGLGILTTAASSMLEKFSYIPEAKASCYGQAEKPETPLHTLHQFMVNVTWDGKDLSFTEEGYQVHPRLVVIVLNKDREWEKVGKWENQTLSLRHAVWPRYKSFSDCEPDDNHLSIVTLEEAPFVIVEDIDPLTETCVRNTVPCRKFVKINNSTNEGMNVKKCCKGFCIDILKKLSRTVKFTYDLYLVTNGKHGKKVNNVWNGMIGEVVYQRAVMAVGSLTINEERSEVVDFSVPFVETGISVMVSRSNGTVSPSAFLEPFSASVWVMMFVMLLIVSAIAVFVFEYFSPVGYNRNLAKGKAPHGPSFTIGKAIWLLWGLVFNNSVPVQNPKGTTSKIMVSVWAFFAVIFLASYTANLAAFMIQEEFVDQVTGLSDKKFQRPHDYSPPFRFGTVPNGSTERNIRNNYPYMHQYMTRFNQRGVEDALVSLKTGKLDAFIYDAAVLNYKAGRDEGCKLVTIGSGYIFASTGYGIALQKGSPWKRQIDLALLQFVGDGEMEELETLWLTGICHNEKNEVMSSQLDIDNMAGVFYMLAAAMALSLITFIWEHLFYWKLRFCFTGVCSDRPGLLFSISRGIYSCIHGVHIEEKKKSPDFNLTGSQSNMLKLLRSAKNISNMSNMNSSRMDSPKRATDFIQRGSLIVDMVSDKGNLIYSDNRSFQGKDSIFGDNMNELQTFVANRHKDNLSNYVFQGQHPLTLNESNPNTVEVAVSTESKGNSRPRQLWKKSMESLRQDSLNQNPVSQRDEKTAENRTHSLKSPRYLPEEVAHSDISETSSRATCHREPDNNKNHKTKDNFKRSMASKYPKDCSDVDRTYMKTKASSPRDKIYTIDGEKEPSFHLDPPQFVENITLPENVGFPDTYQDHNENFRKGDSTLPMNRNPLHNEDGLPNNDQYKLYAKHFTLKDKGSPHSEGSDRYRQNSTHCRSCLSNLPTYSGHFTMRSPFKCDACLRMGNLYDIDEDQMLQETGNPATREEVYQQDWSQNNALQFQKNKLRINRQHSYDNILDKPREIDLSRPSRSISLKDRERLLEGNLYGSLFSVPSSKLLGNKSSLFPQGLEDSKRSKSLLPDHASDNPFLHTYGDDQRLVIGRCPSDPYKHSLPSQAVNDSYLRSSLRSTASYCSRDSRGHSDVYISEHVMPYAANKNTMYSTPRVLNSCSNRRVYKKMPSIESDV
UniProt Q00960, 27-1482: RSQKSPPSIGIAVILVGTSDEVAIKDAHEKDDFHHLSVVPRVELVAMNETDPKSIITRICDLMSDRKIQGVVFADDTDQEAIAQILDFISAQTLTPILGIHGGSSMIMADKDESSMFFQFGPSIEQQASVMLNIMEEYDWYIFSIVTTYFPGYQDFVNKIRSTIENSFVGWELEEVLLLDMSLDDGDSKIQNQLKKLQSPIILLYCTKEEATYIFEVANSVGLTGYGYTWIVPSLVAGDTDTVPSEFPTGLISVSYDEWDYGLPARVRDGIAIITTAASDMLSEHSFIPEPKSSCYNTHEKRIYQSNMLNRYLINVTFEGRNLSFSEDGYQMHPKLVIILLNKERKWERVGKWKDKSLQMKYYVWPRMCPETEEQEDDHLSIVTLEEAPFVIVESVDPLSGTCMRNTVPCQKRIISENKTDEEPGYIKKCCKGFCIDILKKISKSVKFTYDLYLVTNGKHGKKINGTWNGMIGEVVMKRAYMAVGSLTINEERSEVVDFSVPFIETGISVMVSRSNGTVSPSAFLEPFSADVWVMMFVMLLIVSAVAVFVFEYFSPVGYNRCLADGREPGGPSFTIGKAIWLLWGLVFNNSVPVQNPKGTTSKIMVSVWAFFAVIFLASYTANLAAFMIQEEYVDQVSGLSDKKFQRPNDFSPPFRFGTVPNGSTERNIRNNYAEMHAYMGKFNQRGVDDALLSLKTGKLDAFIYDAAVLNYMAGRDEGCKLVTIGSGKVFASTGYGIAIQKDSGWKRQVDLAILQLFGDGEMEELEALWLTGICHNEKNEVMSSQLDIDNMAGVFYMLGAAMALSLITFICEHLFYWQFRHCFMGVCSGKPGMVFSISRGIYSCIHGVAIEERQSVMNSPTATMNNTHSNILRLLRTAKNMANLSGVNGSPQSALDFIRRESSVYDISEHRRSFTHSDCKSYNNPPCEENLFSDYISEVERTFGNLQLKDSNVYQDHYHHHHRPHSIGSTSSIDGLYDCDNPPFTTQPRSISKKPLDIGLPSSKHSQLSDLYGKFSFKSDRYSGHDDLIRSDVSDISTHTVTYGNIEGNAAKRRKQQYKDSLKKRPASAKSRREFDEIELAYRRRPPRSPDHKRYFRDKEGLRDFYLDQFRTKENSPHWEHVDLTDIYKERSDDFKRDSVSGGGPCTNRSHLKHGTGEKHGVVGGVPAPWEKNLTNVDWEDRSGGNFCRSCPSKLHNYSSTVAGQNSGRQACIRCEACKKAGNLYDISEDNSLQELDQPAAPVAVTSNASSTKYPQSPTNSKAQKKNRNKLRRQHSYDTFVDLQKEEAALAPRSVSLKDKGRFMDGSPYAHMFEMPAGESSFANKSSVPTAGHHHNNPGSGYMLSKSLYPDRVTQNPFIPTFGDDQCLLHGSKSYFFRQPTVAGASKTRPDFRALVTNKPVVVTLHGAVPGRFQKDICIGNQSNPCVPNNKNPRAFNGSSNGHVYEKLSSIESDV

The target in assay [2] is T2, GluN1+GluN2B (wildtype receptor complex) (Rattus norvegicus, UniProt P35439+Q00960).
T2 construct: the results obtained with full length GluN2A and GluN2B receptors can be reproduced; host or cells: HEK293
Put plainly: Luminescent Cytotoxicity Assay, GluN1+GluN2B expressing HEK293 cells in presence of MK-801. It is filed as cell-based. The note with it: combined expression of GluN1 and GluN2B in presence of MK-801, 48 h after transfection.

In patent US20230340060A1, “NOVEL MEANS TO PREDICT AND MANIPULATE NMDA RECEPTOR-MEDIATED TOXICITY” (FundaMental Pharma GmbH, priority 2020, published 2023) one finds cell death data, which are given here for one substance.

Turning to MK-801 maleate, the cell death result is recorded as “did not induce cell death” in assay [1] and “did also not induce cell death” in assay [2].
